The source of these data is ChEMBL document CHEMBL4359937, “Design, synthesis and evaluation of 2-amino-imidazol-4-one derivatives as potent β-site amyloid precursor protein cleaving enzyme 1 (BACE-1) inhibitors” (Bioorg Med Chem Lett, 2019).

By UniProt entry, the sequences of proteins in these tests, tags left out. Where a name states a change or a piece, a line headed by the entry shows the natural chain unless it says otherwise.
UniProt P56817: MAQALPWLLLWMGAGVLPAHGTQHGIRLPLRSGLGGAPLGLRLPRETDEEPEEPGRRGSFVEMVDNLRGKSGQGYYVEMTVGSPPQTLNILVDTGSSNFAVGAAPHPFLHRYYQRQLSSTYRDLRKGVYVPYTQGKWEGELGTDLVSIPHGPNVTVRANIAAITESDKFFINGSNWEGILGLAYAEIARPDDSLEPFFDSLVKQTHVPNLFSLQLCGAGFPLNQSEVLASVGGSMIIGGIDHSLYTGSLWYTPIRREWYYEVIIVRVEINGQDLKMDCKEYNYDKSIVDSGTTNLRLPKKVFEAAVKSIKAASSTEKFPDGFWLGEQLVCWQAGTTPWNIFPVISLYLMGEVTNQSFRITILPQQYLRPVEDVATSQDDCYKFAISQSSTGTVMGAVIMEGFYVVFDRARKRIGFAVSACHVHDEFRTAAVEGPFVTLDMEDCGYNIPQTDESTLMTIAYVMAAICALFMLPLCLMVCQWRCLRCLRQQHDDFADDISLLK

This assay concerns the target Beta-secretase 1 (Homo sapiens, UniProt P56817). The experiment in a line: Inhibition of human BACE1 (1 to 460 residues) expressed in baculovirus infected insect cells at 10 uM using Rh-EVNLDAEFK-quencher as substrate measured after 90 mins by FRET assay relative to control.

The inhibition is the change of the read-out against control, counted positive when it falls.

`C[C@@]1(c2cc(-c3cncnc3)c(F)cc2F)CCSC(N)=N1` returned an inhibition of 94.2%.
